Results published in patent US20240324531A1, “METHOD TO INCREASE POLLEN FERTILITY” (Keygene N.V., priority 2021, published 2024).
Like-named read-outs stand apart in the source and are kept apart here.

Tested on: pollen of AC interspecific hybrids from a cross of Brassica oleracea and Brassica rapa
Conditions: for viable pollen (MTT staining): low concentration, 20 nM in 0.5 MS medium, AC hybrid inflorescence
[1] = treatment of inflorescences of AC hybrids, concentration not given

NC1=NC(=O)C(=Cc2ccc(O)cc2)S1 [Mirin, 2-Amino-5-[(4-hydroxyphenyl)methylene]-4(5H)-thiazolone]
optimal concentration for increase of viable pollen (concentration range 20 nM to 1 μM, 10 days): about 20 nM
viable pollen (MTT staining) (10 days): higher number of viable pollen grains
viable pollen (MTT staining) (10 days, listed as mirin): increase of viable pollen
frequency of viable pollen grains [1]: higher frequency of viable pollen grains
size of viable pollen grains [1]: larger viable pollen grains
